Results on six compounds are retold here after PubChem BioAssay AID590 (National Center for Advancing Translational Sciences (NCATS), 2007).

Molecules are shown by their SMILES. Only a part is listed here, and it is no random draw. Records with an inconclusive call do not appear. Calls of active or inactive are those of the source. Rule as the data show it: active = max dye-equivalent concentration above about 10 nM; inconclusive = mostly about 1.1 nM to 9.6 nM; inactive = weaker than that.

This assay is described as follows: qHTS Assay for Spectroscopic Profiling in A350 Spectral Region. The conditions noted are these: Compound autofluorescence, 340/450 nm, Alexa 350 dye-equivalents. The source says: NIH Molecular Libraries Screening Centers Network [MLSCN]
NIH Chemical Genomics Center [NCGC]
Occasionally, the artifactual effect may originate from the compounds own spectral or other biophysical properties which generally tend to track its assay concentration. Pre-screening/profiling the library with respect to the compounds spectral properties should help one exclude false positives early on. While the most informative fluorescent profiling data set is obtained by performing a full excitation and emission scan of each well by using a monochromator-based plate reader, such an approach is practical only on a very limited scale as scanning each well requires long time. An alternative approach, applied here, is to perform plate reader scans using selected excitation and emission wavelength pairs to generate a multidimensional relational database that correlates compound concentration and the respective relative fluorescence intensity at a given wavelength set. A standard curve of Alexa 350 (A 350) present on each plate as six-point concentration series, was used to compute a normalized fluorescence response, termed dye-equivalent concentration, for each compound at each concentration.
NCGC Assay Protocol Summary:
100 mM Tris buffer, pH 8.0
The wells in columns 1 through 4 of a Kalypsys polypropylene 1536-well compound plate were filled with standard solutions of fluorophore corresponding to the spectral region of interest. Solutions of A 350 were placed in the following wells: I1, J1: 3 mM, I2, J2: 300 uM, I3, J3: 30 uM, I4, J4: zero (DMSO), K1, L1: 3 uM, K2, L2: […], K3, L3: 300 nM, K4, L4: zero (DMSO).
Six uL of buffer were dispensed to 1536-well Greiner black plates. Compounds and dye standards (23 nL) were transferred via Kalypsys PinTool. The plates were incubated for 15 min at room temperature, and then read on ViewLux (Perkin-Elmer) High-throughput CCD imager using 340 nm and 450 nm excitation and emission filter set.
Keywords: NIH Roadmap, MLSCN, MLI, MLSMR, qHTS, NCGC, A350, A-350, Fluorescent Profiling.
Background: Quantitative high-throughput screening tests each substance at several concentrations.
In the case of `N/C(=N\O)c1c(N)no[n+]1[O-]`, the outcome was inactive.

With `CCC(CO)(C(=O)OC1CN2CCC1CC2)c1ccccc1` (stereo unspecified), the outcome was inactive.

As to `O=C(O)C1(Nc2ccccc2)CCN(Cc2ccccc2)CC1`, the outcome was inactive.

Regarding `CCOc1ncccc1C(=O)NCC1(N2CCOCC2)CCCCC1`, the outcome was inactive.

As to `O=C(OC1CN2CCC1CC2)C1c2ccccc2Oc2ccccc21` (stereo unspecified), the outcome was inactive.

Regarding `N#CC1(Nc2ccccc2)CCN(CCc2ccccc2)CC1`, the outcome was inactive.
